Data taken from PMC10742472, “Synthesis and Characterisation of Platinum(II) Diaminocyclohexane Complexes with Pyridine Derivatives as Anticancer Agents” (International Journal of Molecular Sciences, 2023).

Assay type: physicochemical
Experimental: Lipophilicity was calculated using RP-HPLC. A stock solution of each PC was injected at different isocratic ratios ranging from 70–90% solvent B (organic) at a flow rate of 1 mL·min^−1 [32, 33, 34]. The complexes have low solubility in water, often requiring DMSO to make concentrated solutions. Yet the LogK’ calculated using these experimental data indicated high lipophilicity, which is typical for 2+ charged complexes. […] When heat was applied, they would not precipitate out of the solution after cooling. This confirmed that a lack of persistence was the cause of the “observed” low solubility in H2O. […] Other factors, such as stability and cellular absorption, would need to be considered before the potential of these Pt(II) anticancer agents could be evaluated.
Lipophilicity was evaluated using RP-HPLC, whereby LogKw is calculated by injecting a stock solution of the PC at different isocratic ratios ranging from 70–90% solvent B (organic) at a flow rate of 1 mL·min^−1. […] The dead zero volume time was determined using potassium iodide as an external dead volume marker, with further details in the Supplementary Materials. The subsequent peaks were recorded, and K was calculated using Equation (6). (6) K=tr−t0/t0 where K is the capacity factor, tr is the retention time of the analyte, and t0 is the dead time determined using a solution of KI in the same column. […]

Substance | Lipophilicity
[Pt(2-(1H-Imidazol-2-yl)pyridine)(1R,2R-(+)-diaminocyclohexane)]^2+ [Complex 5b] | 2.26 ± 0.02
[Pt(2-pyrrolidin-2-yl pyridine)(1R,2R-(+)-diaminocyclohexane)]^2+ [Complex 4b] | 2.65 ± 0.02
